For this assay, the species on record is Macaca mulatta. The assay can be described thus: Selectivity for rhesus monkey DAT over rhesus monkey SERT. The procedure, abridged:
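Ratio of SERT IC50 ([3H]citalopram binding) to DAT IC50 ([3H]WIN35,428 binding), both measured in monkey caudate-putamen membranes.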

The values below come from ChEMBL document CHEMBL1144528, “Synthesis of 8-thiabicyclo[3.2.1]octanes and their binding affinity for the dopamine and serotonin transporters” (Bioorg Med Chem, 2007).

For `COC(=O)C1=C(c2ccc(Cl)c(Cl)c2)CC2C[C@@H](O)[C@@H]1N2C`, the Ratio IC50 was 6.
